Earlier results as cited in patent publication US6512003B2, “Synthetic spiroketal pyranes as potent anti-cancer agents and use” (Parker Hughes Institute, priority 1998, dated 2003).

Tested on: NCI panel of 60 human cancer cell lines
Details: cited from earlier work

For Spongistatin, which “IC50 values, cytotoxicity” value is on record?
The value was “subnanomolar”.
